Test results taken from US9328139B2, “Cyclin based inhibitors of CDK2 and CDK4” (University of South Carolina, priority 2010, dated 2016).

Molecular target: Cyclin A (Homo sapiens, UniProt P20248)
Experiment: Previously determined kinase inhibition, cyclin A (CDK2/cyclin A)
Assay type: biochemical
Details: log of IC50 in μM

PVKRRLDL was tested. Which “LogIC50, Cyclin A” value did it give?
Its value is 0.08.
